From published antibiotic growth screens (doi:10.1038/s41589-023-01349-8) come the findings set out here.

Each structure is given as a SMILES string. Some of the results follow.

The assay relates to A. baumannii ATCC 17978. The assay can be described thus: relative growth (fraction of control); higher = less inhibition. The conditions noted are these: 50 µM.
Turning to `C[N+](C)(C)CC(=O)[O-].Cl`, the relative growth came out at 1. Then `C#CCOS(=O)OC1CCCCC1Oc1ccc(C(C)(C)C)cc1` (stereo unspecified), with 1.26; and `O=c1[nH]c2cc(N3CCNCC3)ccc2o1`, with 1.08. Then `C=C(C)c1cc2cc(C(C)=O)c(O)cc2o1`, with 1.17. Then `COc1ccc(C(=O)O[C@H]2CC[C@@]3(C)[C@@H]4CC[C@H]5[C@]6(O)C[C@H](O)[C@@]7(O)[C@@H](CN8C[C@@H](C)CC[C@H]8[C@@]7(C)O)[C@]6(O)C[C@@]53O[C@]24O)cc1OC`, with 0.964; and `COP(=S)(OC)Oc1ccc([N+](=O)[O-])cc1`, with 1.02.

`CC1=NCCc2c1[nH]c1cc(O)ccc21.Cl.O.O` returned a relative growth of 1.13.

Compound `CC(=O)NN1Cc2ccccc2C1=N` gave a relative growth of 1.21. With `CSC1=NN1c1cc(C)nc(N)n1`, the relative growth turned out to be 1.11. Then `Fc1ccc(Oc2ccnc3cc(Cl)cc(Cl)c23)cc1`, with 1.11. Then `CC1(C)[C@@H](C=C(Br)Br)[C@@H]1C(=O)O[C@@H](C#N)c1cccc(Oc2ccccc2)c1`, with 1.02.

Consider `Cc1[nH]c2ccccc2c1CCN`, for which the relative growth was 1.05. Then `COc1cc([C@@H]2c3cc4c(cc3[C@H](O)[C@H]3COC(=O)[C@@H]23)OCO4)cc(OC)c1OC`, with 1.13; and `COc1ccc([C@H]2CC(=O)N3CCNC[C@@H]23)cc1`, with 0.948; and `COC(=O)C[C@@H](CN)c1ccc(Cl)cc1`, with 0.992.

For the compound `CCCCCCCCCCCCCCCC[N+](C)(C)C.[Br-]`, the relative growth stood at 0.193. As for `C=C(C)[C@@H]1[C@H]2OC(=O)[C@@H]1[C@]1(O)C[C@H]3O[C@]34C(=O)O[C@H]2[C@]14C`, the relative growth worked out at 1.17.

Take `O=C1C=C2C=C[C@@H]3C[C@@]2(O1)[C@H]1CCCCN31`: the relative growth amounted to 1.04. Then `NCCO.NCCO.O[AsH]O[AsH]O` (stereo unspecified), with 1.11. Then `COc1ccc(C2(CN)CCCC2)cc1`, with 1.03; and `CC(C)=CC1C(C(=O)OCc2cccc(Oc3ccccc3)c2)C1(C)C` (stereo unspecified), with 1; and `C[C@@H]1O[C@@H](O[C@@H]2C=C3CCC4C(CC[C@]5(C)[C@@H](c6ccc(=O)oc6)CC[C@]45O)[C@@]3(C)CC2)C(O)C(O)[C@H]1O` (stereo partly specified), with 0.965. Then `CC(=O)OC1CC[C@@]2(C)C(CCC3C2CC[C@]2(C)C(C4=CC(=O)OC4)C(OC(C)=O)CC32O)C1` (stereo partly specified), with 0.927; and `CN1C(=O)/C(=C/c2cn(CC(=O)N3CCOCC3)c3ccccc23)C(=O)NC1=S`, with 1.22; and `NC(=O)CN1CC(O)CC1=O` (stereo unspecified), with 0.922. Consider `CC(C)C[C@@H]1NC[C@@H]2CCCN2C1=O`, for which the relative growth was 0.931. Then `COc1ccn(C)c(=O)c1C#N`, with 1.08; and `CC(=O)NCCSS(C)(=O)=O.CN(C)c1ccc2c(-c3ccccc3C(=O)O)c3ccc(N(C)C)cc3[o+]c2c1`, with 1.04. As to `CC(=O)O[C@@H]1CC2C(C)(C)C(=O)C=C[C@]2(C)C2CC[C@]3(C)C(=CC(=O)O[C@H]3c3ccoc3)[C@@]21C` (stereo partly specified), the relative growth worked out at 1.14. Then `C[C@@H](N)[C@@H](O)c1ccccc1.Cl`, with 1.07; and `COc1ccc(C2(CN)CCOCC2)cc1`, with 0.946; and `Nc1ccncc1`, with 1.03.

`CN(C)Cc1c[nH]c2ccccc12` displayed a relative growth of 1.05. Then `Cn1ccnc1N1CCNCC1`, with 1.02; and `CN1C(=O)NC(=O)/C(=C\c2ccc(O)cc2)C1=O`, with 0.976.

As for `O=C(O)CCCc1ccc(N(CCCl)CCCl)cc1`, the relative growth stood at 0.942. Then `CC[C@@]1(O)C[C@H](O)c2c(cc3c(c2O)C(=O)c2c(O)ccc(O)c2C3=O)[C@H]1C(=O)OC`, with 1.11; and `CC[C@@H](C(N)=O)N1CCCC1=O`, with 1.22; and `COC(=O)[C@@H]1C[C@H](OC(C)=O)C(=O)[C@H]2[C@@]1(C)CC[C@H]1C(=O)O[C@H](c3ccoc3)C[C@]21C`, with 0.916. Then `CC[C@@H](C(=O)[C@@H](C)[C@@H](O)[C@H](C)[C@@H]1O[C@@H]([C@@H](CC)C(=O)[O-])CC[C@@H]1C)[C@H]1OC2(C=C[C@@H](O)[C@]3(CC[C@@](C)([C@H]4CC[C@](O)(CC)[C@H](C)O4)O3)O2)[C@H](C)C[C@@H]1C.[Na+]` (stereo partly specified), with 0.966; and `CN1C2CC[C@@H]1C[C@@H](OC(=O)[C@H](CO)c1ccccc1)C2`, with 0.933; and `COc1ccc(C(=O)N2CCCC2=O)cc1`, with 1.01.

In turn, `CN(C)C(=O)[C@@]1(Cc2ccccc2CN=[N+]=[N-])N=C(c2ccc(OCCCO)cc2)O[C@H]1c1ccccc1N=[N+]=[N-]` displayed a relative growth of 1. `C[C@]12CCC3C(CC[C@H]4C[C@@H](O)CC[C@]34C)C1CCC2=O` (stereo partly specified) returned a relative growth of 0.983. The compound `CCCCCCCCCCCCCC(=O)O[C@@H]1[C@@H](C)[C@@]2(O)[C@@H](C=C(CO)C[C@]3(O)C(=O)C(C)=C[C@@H]23)[C@@H]2C(C)(C)[C@]12OC(C)=O` gave a relative growth of 1.28. Then `Cc1nc(N2CCN(C)CC2)ccc1N`, with 0.968; and `CC1=NCCN=C(C)C1N1CCOCC1`, with 1.09; and `NCCc1ccc(C(=O)c2ccccc2)cc1`, with 1.02.

`C[C@H](CO)N1C[C@H](C)[C@@H](CN(C)C(=O)Oc2ccc3ccccc3c2)OCc2cnnn2CCCC1=O` registered a relative growth of 1.15. Then `CO[C@H]1[C@H](O)[C@@H](O[C@H]2CC[C@]3(C=O)C4CC[C@]5(C)[C@@H](C6=CC(=O)OC6)CC[C@]5(O)C4CC[C@@H]3C2)O[C@@H](C)[C@@H]1O` (stereo partly specified), with 1.2; and `Cn1cc([C@@]23C[C@]2(C)COC3=O)cn1`, with 1.19. Then `Cc1nccc2c1[nH]c1ccccc12`, with 0.532; and `NCC[C@H]1COc2ccccc2O1`, with 0.957. Then `Cl.NCC(CC(=O)O)c1ccc(Cl)cc1` (racemic), with 1.23; and `COCCCNC(=O)[C@@]1(Cc2ccccc2CN=[N+]=[N-])N=C(c2ccc(OCCCO)cc2)O[C@H]1c1ccccc1CN=[N+]=[N-]`, with 0.969; and `Cc1n[nH]c(=O)nc1N1CCN(C)CC1`, with 1.01. `O=[N+]([O-])c1cc([As](=O)(O)O)ccc1O` gave a relative growth of 1.01. Then `CC(C)(C)[C@H]1CC[C@@]2(CC1)C[C@@H](C[Si](C)(C)C)OO2`, with 1.05. Then `CNCC(=O)c1ccc(O)c(O)c1.Cl`, with 0.892. For `CCC1(c2ccc(N)cc2)CCC(=O)NC1=O` (stereo unspecified), the relative growth was determined as 0.909.

`Cl.N=C(N)NN` registered a relative growth of 0.995. Then `C[C@@]1(C(=O)O)[C@H]2CC[C@@H](O2)[C@@]1(C)C(=O)O`, with 1.03.

For `C[C@@H]1C[C@@H]([C@H](O)CC2CC(=O)NC(=O)C2)C(=O)[C@@H](C)C1`, the relative growth was found to be 0.938. Compound `C=C[C@H]1CN2CC[C@H]1CC2C(OC(=O)OCC)c1ccnc2ccc(OC)cc12` (stereo in doubt) came in with a relative growth of 0.94. Then `[N-]=[N+]=CC(=O)OCC(N)C(=O)O` (stereo unspecified), with 1.03.

As for `NCCc1ccc(O)cc1`, the relative growth stood at 1.17.

In turn, `C[CH2][Hg][S]c1ccccc1C(=O)[O-].[Na+]` gave a relative growth of 0.159. Then `CC(=O)CC1CCCCN1.Cl` (stereo unspecified), with 0.989; and `CCCC(=O)c1c(O)[nH]c(=O)[nH]c1=O`, with 0.926; and `C=CCN1CCC23c4c5ccc(O)c4O[C@H]2C(=O)CC[C@@]3(O)[C@H]1C5.Cl`, with 1.08. `CN1CCN([C@@H](CN)c2ccc3c(c2)OCO3)CC1` returned a relative growth of 0.914. Then `NC(=O)C[S@@](=O)C(c1ccccc1)c1ccccc1`, with 1.16; and `N=C1NC(=O)N2CC12` (stereo unspecified), with 1.15. Then `[O-][n+]1ccccc1[S][Zn][S]c1cccc[n+]1[O-]`, with 0.151; and `CN1[C@@H]2CC[C@@H]1CC(O)C2` (stereo partly specified), with 0.916; and `COc1ccc(O)c(C(C)(C)C)c1`, with 1.07.

`COc1ccc2c3c([nH]c2c1)C(C)=NCC3` gave a relative growth of 0.804. Then `O=C(O)/C=C\C(=O)O.c1ccc2nc(N3CCNCC3)ccc2c1`, with 1.09; and `CCN1C(=O)/C(=C/c2ccc[nH]2)C(=O)NC1=S`, with 0.934. Compound `O=C(N/N=C/c1ccc([N+](=O)[O-])o1)c1cc([N+](=O)[O-])cc([N+](=O)[O-])c1O` registered a relative growth of 0.866.

Compound `CC[n+]1c(-c2ccccc2)c2cc(N)ccc2c2ccc(N)cc21.[Br-]` gave a relative growth of 0.937. Then `COc1ccc(C=O)cc1`, with 1.02. Take `C=C(C)C1Cc2c(ccc3c(=O)c4c(oc23)COc2cc(OC)c(OC)cc2-4)O1` (stereo unspecified): the relative growth is 1.23. Turning to `CCC1(CC)C(=O)C=CNC1=O`, the relative growth came out at 0.866. Then `CC(C)(C)OC(=O)N1C[C@H]2C[C@@H]1CN2`, with 0.985.

Take `CC(C)C12CN3CCN(CC(C3)C1=O)C2`: the relative growth is 0.879. Then `CC1CC[C@]2(NC1)O[C@H]1CC3C4CC[C@H]5C[C@@H](O)CC[C@]5(C)C4CC[C@]3(C)[C@H]1[C@@H]2C.Cl` (stereo partly specified), with 1.15; and `Cl.Oc1noc2c1CCNC2`, with 0.874.

In the case of `O=C(NC(=O)c1c(F)cccc1F)Nc1cc(Cl)c(OC(F)(F)C(F)C(F)(F)F)cc1Cl` (stereo unspecified), the relative growth turned out to be 1.22.

Turning to `O=S(=O)(O)O.Oc1cccc2cccnc12`, the relative growth turned out to be 0.18. Take `CC1=C2[C@H]3OC(=O)C(C)[C@@H]3CC[C@@]2(C)C=CC1=O` (stereo partly specified): the relative growth was 0.91. `COC(=O)C1=CCCN(C)C1` displayed a relative growth of 1.13. Then `C=C(C)[C@H]1Cc2c(ccc3c2O[C@@H]2COc4cc(OC)c(OC)cc4[C@@H]2C3=O)O1`, with 0.968. As to `COC(=O)[C@]1(Cc2ccccc2CN=[N+]=[N-])N=C(c2ccc(OCCCO)cc2)O[C@@H]1c1ccccc1N=[N+]=[N-]`, the relative growth came out at 1.18. Then `COP(=O)(OC)OC(Br)C(Cl)(Cl)Br` (stereo unspecified), with 1.26; and `COC1=CC(=O)OC(/C=C/c2ccccc2)C1` (stereo unspecified), with 0.899.

`CC(=O)O[C@@H]1C2CC[C@@H]3C1(C[C@@H](O)[C@@]1(O)[C@@H](C[C@H](O)C1(C)C)[C@]3(C)O)C[C@@]2(C)O` (stereo partly specified) gave a relative growth of 1.13. `Cl.NCC(O)c1ccc(O)cc1` (stereo unspecified) had a relative growth of 0.968.

`O=C1C=C2C(=CCOC2O)O1` (stereo unspecified): the relative growth turned out to be 0.122.

Regarding `O=c1cccc2n1C[C@H]1CNCC2C1`, the relative growth was 1.14. Then `N#CC(O[C@@H]1O[C@H](CO[C@@H]2O[C@H](CO)[C@@H](O)[C@H](O)[C@H]2O)[C@@H](O)[C@H](O)[C@H]1O)c1ccccc1` (stereo partly specified), with 1.01; and `CN[C@@H](C)[C@@H](O)c1ccccc1.Cl`, with 1.32. Then `CC1(C)C(C=C(Cl)Cl)C1C(=O)OC(C#N)c1cccc(Oc2ccccc2)c1` (stereo unspecified), with 1.11; and `Oc1cc(Cl)ccc1Oc1ccc(Cl)cc1Cl`, with 0.153; and `CC1=CCC[C@@H]2C1(C)CCC(C)[C@@]2(C)CC/C(C)=C/Cn1c[n+](C)c2c(N)ncnc21.[Cl-]` (stereo partly specified), with 0.816.

`C[C@]12CC[C@H](O)CC1=CCC1C2CC[C@]2(C)C(=O)CC[C@@H]12` (stereo partly specified) yielded a relative growth of 1.09.
